## Ab-14 heavy chain CDR variants: yeast mating affinities

Target peptide (SARS-CoV-2 spike, HR2 region): PDVDLGDISGINAS

Parent: Ab-14, a human scFv built as VH, a (GGGGS)3 linker, VL. Only the CDRs of the heavy chain vary.
VH: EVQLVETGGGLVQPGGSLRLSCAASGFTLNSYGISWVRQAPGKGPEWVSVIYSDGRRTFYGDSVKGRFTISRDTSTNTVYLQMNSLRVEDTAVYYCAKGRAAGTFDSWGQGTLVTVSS
VL: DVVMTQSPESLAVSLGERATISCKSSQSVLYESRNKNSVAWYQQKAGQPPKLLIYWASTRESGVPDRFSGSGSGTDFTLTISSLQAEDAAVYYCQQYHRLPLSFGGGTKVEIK

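Phage display of a naive human antibody library on the peptide gave the parent. AAYL49 was designed without a model: most single CDR substitutions and a random sample of double and triple ones. In AlphaSeq, yeast of one mating type display the scFv and yeast of the other type display the target. After mating in shaken culture at 30 °C for 16 h, diploids were selected and their barcode pairs sequenced. The ratio of observed to expected reads was calibrated, replicate by replicate, on BCL2-family standards whose Kd was known from biolayer interferometry. There are three technical replicates.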

Changes read parent residue, position, new residue, counted from the first residue of the VH shown.
Scale: log10 of Kd in nM, estimated from mating counts; low values are strong binders.
An entry "n.d." has no value in the source: the pair was not observed among the diploids in that replicate. This suggests poor binding but is not conclusive.

changes | log10 Kd, replicates | empty controls
R56T R57V R100V | n.d. n.d. n.d. | 0 of 9
S31M Y32N S35F | n.d. n.d. n.d. | 4 of 9 (4.90)
L29Q V64P G99M | 4.38 n.d. n.d. | 2 of 9 (4.28)
I34P G55P V64T | n.d. n.d. n.d. | 1 of 9 (4.09)
F59A Y60A | n.d. 3.46 n.d. | 3 of 9 (4.22)
F27C R100M S107L | n.d. n.d. n.d. | 2 of 9 (3.75)
D54S A101P D106W | n.d. 4.12 3.95 | 3 of 9 (3.81)
Y52L | n.d. n.d. n.d. | 0 of 9
S31A I34Y S107I | n.d. n.d. n.d. | 0 of 9
T58K G103L S107W | n.d. n.d. n.d. | 0 of 9
G26A R57V | n.d. n.d. n.d. | 0 of 9
N30L Y60F | 3.67 3.19 3.58 | 4 of 9 (4.01)
G33F S35D F105R | n.d. n.d. n.d. | 1 of 9 (4.37)
F27D S31E S35Q | n.d. 5.52 n.d. | 4 of 9 (4.80)
T28N Y52I G99A | n.d. n.d. n.d. | 0 of 9
G61P G103I D106P | n.d. 2.26 2.33 | 0 of 9
T28H G55N R56S | n.d. 4.52 n.d. | 4 of 9 (4.70)
G26K G33F F59P | n.d. 4.58 n.d. | 1 of 9 (4.15)
I34A D54E A101H | n.d. 4.04 n.d. | 1 of 9 (4.08)
G61F G103C S107F | n.d. 3.68 3.56 | 6 of 9 (4.96)
L29A S35M R56G | 2.70 n.d. n.d. | 2 of 9 (3.49)
Y32E G61C A101G | 2.01 2.21 2.33 | 5 of 9 (4.52)
N30F I51Q D62M | n.d. n.d. n.d. | 1 of 9 (4.63)
S31G V64F T104S | n.d. n.d. n.d. | 0 of 9
G55N R56T A102M | 3.38 n.d. n.d. | 2 of 9 (3.29)
G26V Y52M D54I | n.d. n.d. n.d. | 0 of 9
S53G D62F T104H | n.d. n.d. n.d. | 0 of 9
N30C V64A G103E | 3.01 3.46 5.10 | 1 of 9 (4.58)
G33C S35W A101Y | n.d. n.d. 4.56 | 1 of 9 (3.57)
R100F | 1.35 1.22 1.60 | 0 of 9
G26W L29E S107Y | n.d. 3.66 n.d. | 0 of 9
G33P R57E K65D | n.d. 3.45 4.41 | 0 of 9
R57M V64M F105P | 4.55 n.d. n.d. | 3 of 9 (3.66)
L29Q T104M | n.d. n.d. n.d. | 4 of 9 (4.33)
S53A T58L S63A | 1.29 1.33 1.38 | 0 of 9
S35L G99S | n.d. 3.95 n.d. | 2 of 9 (3.92)
F27L S63M A102S | n.d. n.d. n.d. | 0 of 9
G33N R56S D106C | n.d. n.d. n.d. | 3 of 9 (2.89)
L29I S53R A101W | 3.61 n.d. n.d. | 0 of 9
L29H F59G D106W | n.d. 4.12 n.d. | 1 of 9 (3.27)
F27R N30F S107D | 3.79 2.32 3.12 | 0 of 9
V50Q S53E D62A | n.d. 3.09 n.d. | 2 of 9 (4.11)

The last 2 entries again:

changes | log10 Kd, replicates | empty controls
F27R N30F S107D | 3.79 2.32 3.12 | 0 of 9
V50Q S53E D62A | n.d. 3.09 n.d. | 2 of 9 (4.11)

As a blank, each scFv also met three strains without target: over library AAYL49, 15% of these pairings were detected, typically at 4.06 and seldom below 2.83. For each scFv, signals with the empty controls are counted beside the result, with their mean in brackets.
In this assay the parent's reference entry averaged 0.65; its copy inside this library read 4.11 (one replicate of three).

Data: MIT Lincoln Laboratory AlphaSeq set, Engelhart et al. 2022, doi:10.1038/s41597-022-01779-4, as distributed in FLAb.